Values quoted from earlier work in paper PMC7955072 (Nature Communications, 2021).

Tested on: bacterial IleRSs
Conditions: cited from earlier work

## CCCC[C@@]1(OC(=O)CCC(=O)O)CC[C@]2(CC[C@H](C)[C@@H](C/C=C(C)/C=C/[C@H](O)[C@@H](C)/C=C/C(=O)O)O2)O[C@H]1/C=C/C(C)=C/C(=O)O [RM-A, reveromycin A]
  inhibition of bacterial IleRSs: does not show significant inhibition
